From article PMC12147714 (FEMS Microbiology Letters, 2025)

Protein sequences, listed by entry. Tags and fused reporters are not part of them. Residues count along the entry.
UniProt Q9F663, 25-293 limits assumed: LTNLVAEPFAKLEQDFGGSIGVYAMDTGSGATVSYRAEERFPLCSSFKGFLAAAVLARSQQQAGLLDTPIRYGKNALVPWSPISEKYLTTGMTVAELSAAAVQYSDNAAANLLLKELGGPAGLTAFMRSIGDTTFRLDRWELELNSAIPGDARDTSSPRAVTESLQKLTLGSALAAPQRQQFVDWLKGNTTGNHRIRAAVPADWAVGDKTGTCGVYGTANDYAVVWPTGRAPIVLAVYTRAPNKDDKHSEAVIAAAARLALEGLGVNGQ

Molecular target: KPC-2 (Klebsiella pneumoniae, UniProt Q9F663)
Experiment: IC50, inhibition of cephalothin hydrolysis by crude extract

**Q.** `O=C(O)[C@@H](S)[C@@H](S)C(=O)O` [DMSA, meso-dimercaptosuccinic acid] was tested. Which IC50 (100 μM cephalothin, pH 7.0) did it give?
**A.** Its IC50 is over 1 mM.

**Q.** And the IC50 (data not shown)?
**A.** Its IC50 is 6.93 mM.
